For one substance, TLA Inhibition (%): residual trypsin-like activity of VpSP37 on BOC-Gln-Ala-Arg-AMC 0.025 mM after pre-incubation with 1 uM aprotinin results are on record in article PMC4498684.

For this assay, the target named is VpSP37 (Vibrio parahaemolyticus secreted protease 37 kDa) (Vibrio parahaemolyticus (isolate B2)).

Substance “Aprotinin (from UniProt P00974 36-93) (natural protein)” came in with a TLA Inhibition (%): residual trypsin-like activity of VpSP37 on BOC-Gln-Ala-Arg-AMC 0.025 mM after pre-incubation with 1 uM aprotinin at 37°C for 15-40 min of 98.2%.
